The values below come from US8278310B2, “Amine salts of a CRTH2 antagonist” (Actimis Pharmaceuticals, Inc., priority 2007, dated 2012).

The nature of the data set: Aqueous solubility of the salts from base screening. The note with it: salt of the acid of Formula I with the named base.

On to “Choline Salt of {4,6-Bis(dimethylamino)-2-(4-(4-(trifluoromethyl)benzamido)benzyl)pyrimidin-5-yl}Acetic Acid”, for which the “Aqueous Solubility at 25° C.” value was determined as 24.0 mg/mL.
